According to the NIST ThermoML archive (doi:10.1016/j.fluid.2018.05.011):
± gives the expanded uncertainty stated by the source.

Settings: Liquid; Resistive pulse heating

OCCOCCOCCOCCO [tetraethylene glycol]
Critical pressure: 2710 ± 110 kPa
Critical temperature: 814 ± 12 K
